{
  "source": "patent US20250332139A1",
  "about": "“PS[…] AND THEIR USE FOR TREATING […] AND NE[…] DISORDERS” (Transcend Therapeutics, Inc., priority 2021, published 2025)",
  "tested_on": "168 GPCRs",
  "test": "β-arrestin GPCR screen (PathHunter/GPCRmax), agonist mode",
  "assay_type": "cell-based",
  "conditions": "1 and 10 μM, threshold >30% activity",
  "data": [
    {"smiles": "CNC(C)C(=O)c1ccc2c(c1)OCO2", "note": "(centres unmarked) [methylone, 3,4-methylenedioxy-N-methylcathinone]", "values": [
      {"measurement": "agonist activity at 168 GPCRs", "value": "did not meet criteria for agonist or antagonist activity"},
      {"measurement": "agonist activity at 168 GPCRs", "setting": "listed as Methylone", "value": "no significant agonist activity detected"}
    ]}
  ]
}
